# From PubChem BioAssay AID651725 (National Center for Advancing Translational Sciences (NCATS), 2012)
# Sequences of proteins named here, by UniProt entry; tags and fusion partners are left off.
# UniProt Q15475, whole entry: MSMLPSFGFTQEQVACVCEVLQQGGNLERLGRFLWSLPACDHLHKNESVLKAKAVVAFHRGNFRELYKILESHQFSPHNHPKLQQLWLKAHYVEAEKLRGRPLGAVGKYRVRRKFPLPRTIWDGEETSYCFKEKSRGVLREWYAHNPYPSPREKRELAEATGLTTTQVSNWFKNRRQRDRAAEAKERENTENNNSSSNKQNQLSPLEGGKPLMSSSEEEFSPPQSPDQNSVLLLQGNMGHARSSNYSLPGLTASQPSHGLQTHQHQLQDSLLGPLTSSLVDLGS
# Only a part is listed here, and it is no random draw. Calls of active or inactive are those of the source. No stated cut-off is given here; in the data, active means activity change below about -65%; inconclusive means mostly about -30% to -63%; inactive means weaker than that.
# Target: Homeobox protein SIX1 (Homo sapiens) + Protein phosphatase EYA2 (Homo sapiens) (UniProt Q15475+O00167)
# Assay: qHTS Assay for Inhibitors of the Six1/Eya2 Interaction
# Details: AlphaScreen GST-Six1/His-Eya2 binding, biochemical; stronger effect = lower value
# Summary of the method: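 AlphaScreen luminescence read after one hour at 37 °C in darkness. Pin-transferred compounds met GST-Six1 and His-Eya2 protein (5X stock 250 nM/500 nM) plus glutathione donor and Ni-chelate acceptor beads (5X, 50 ug/mL).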
# On the % scale 0 is the no-effect control and ±100 the full control effect.
row,SMILES,activity change
1,Cc1cc(C)cc(N(C(=O)c2ccccc2)C2CCN(C(=O)OC(C)(C)C)CC2)c1,inactive: 5.68%
2,CCOC(=O)N1CCC(Nc2ccc(OC)cc2)CC1,inactive: -4.26%
3,CCCCn1nnnc1C(c1ccc(OC)cc1)N1CCC(n2c(=O)[nH]c3ccccc32)CC1 (stereo unspecified),inactive: -0.998%
4,N#CC1(Nc2ccccc2)CCN(Cc2ccccc2)CC1,inactive: -10.3%
5,O=C(NCC1(N2CCCCC2)CCCCC1)c1ccc(Cl)s1,inactive: 4.05%
6,O=c1[nH]c2ccccc2n1C1CCN(C(c2cc3ccccc3o2)c2nnnn2C2CCCCC2)CC1 (stereo unspecified),inactive: -13.1%
7,O=C(OC1CN2CCC1CC2)C1c2ccccc2Oc2ccccc21 (stereo unspecified),inactive: -3.17%
8,COc1ccc(Cl)cc1C(=O)NCC1(N2CCOCC2)CCCCC1,inactive: 23.8%
9,O=C(NCC1(N2CCCCC2)CCCCC1)c1ccc(=O)[nH]c1,inactive: 8.13%
10,CCCCn1nnnc1C(CC)N1CCC(n2c(=O)[nH]c3ccccc32)CC1 (stereo unspecified),inactive: -7.06%
11,O=C(NCC1(N2CCCCC2)CCCCC1)c1cccs1,inactive: 12.8%
12,CCCCn1nnnc1C(c1cccs1)N1CCC(n2c(=O)[nH]c3ccccc32)CC1 (stereo unspecified),inactive: 5.39%
13,COc1ccc(C(=O)NCC2(N3CCCCC3)CCCCC2)cc1,inactive: -4.59%
14,COc1ccc(C(=O)NCC2(N3CCCCC3)CCCCC2)c(OC)c1OC,inactive: -6.46%
15,CC(C)(C)OC(=O)N1CCC(N(C(=O)c2ccccc2)c2ccc(F)cc2)CC1,inactive: 7.17%
16,CCC(c1nnnn1C1CCCC1)N1CCC(n2c(=O)[nH]c3ccccc32)CC1 (stereo unspecified),inactive: -10.2%

row,SMILES,activity change
1,CSc1ccccc1C(=O)NCC1(N2CCCCC2)CCCCC1,inactive: -4.73%
2,Cc1cccc(NC2(C#N)CCN(Cc3ccccc3)CC2)c1,inactive: 2.22%
3,O=c1[nH]c2ccccc2n1C1CCN(C(c2ccccc2)c2nnnn2C2CCCCC2)CC1 (stereo unspecified),inactive: -14.2%
4,O=c1[nH]c2ccccc2n1C1CCN(C(c2cccc3ccccc23)c2nnnn2C2CCCC2)CC1 (stereo unspecified),inactive: -12.6%
5,CCOC(=O)N1CCC(Nc2cccc(C)c2)CC1,inactive: 3.58%
6,COc1cc(C(=O)NCC2(N(C)C)CCCCC2)ccc1OC(F)F,inactive: 9.97%
7,CCOc1ccc(C)cc1CN(CCCl)CCCl,inactive: 14.2%
8,CC(C)(C)n1nnnc1C(c1ccccc1)N1CCC(n2c(=O)[nH]c3ccccc32)CC1 (stereo unspecified),inactive: -12.7%
9,O=C1CCN(Cc2ccccc2)CC1,inactive: -0.565%
10,CCCCOc1ccc(C(=O)NCC2(N3CCOCC3)CCCCC2)cc1,inactive: 4.66%
11,O=P1(N(CCCl)CCCl)SCCCS1,inactive: 7.22%
12,CCCCn1nnnc1C(c1cc2ccccc2o1)N1CCC(n2c(=O)[nH]c3ccccc32)CC1 (stereo unspecified),inactive: -20.6%
13,O=C(NCC1(N2CCCCC2)CCCCC1)c1ccc(F)cc1,inactive: 2.61%
14,CCOC(=O)N1CCC(Nc2ccc(F)cc2)CC1,inactive: 4.61%
15,COc1ccc(NC2CCN(CCc3ccccc3)CC2)c(OC)c1,inactive: -22.4%
